Results: paper PMC3873281, “Discovery and Preclinical Characterization of Novel Small Molecule TRK and ROS1 Tyrosine Kinase Inhibitors for the Treatment of Cancer and Inflammation” (PLoS ONE, 2013)

What was measured:
[1] = tested on: K-299 cells; experiment: ALCL cell growth, WST-1; conditions: ALK (+), NPM-ALK, 3 days
[2] = tested on: A549 cells; experiment: A549 cell growth; conditions: lung cancer model that does not express ROS1
[3] = tested on: SUDHL cells; experiment: ALCL cell growth, WST-1; conditions: ALK (+), NPM-ALK, 3 days

**Q.** Which “growth of K-299 cells” value [1] does the source give for `C[C@@H](Oc1cc(-c2cnn(C3CCNCC3)c2)cnc1N)c1c(Cl)ccc(F)c1Cl` [crizotinib] here?
**A.** The value was “comparably inhibited”.

**Q.** What about the “growth of A549 cells” value [2] of the same molecule?
**A.** The value was “not inhibited”.

**Q.** What about the “growth of SUDHL cells” value [3] of the same molecule?
**A.** Its value is “comparably inhibited”.
